Literature values, collected in article PMC2812024 (Journal of medicinal chemistry, 2008).

Sequences of proteins named here, by UniProt entry; tags and fusion partners are left off. A change or cut given only in a name is not applied to a line headed by its entry.
UniProt P32300, whole entry: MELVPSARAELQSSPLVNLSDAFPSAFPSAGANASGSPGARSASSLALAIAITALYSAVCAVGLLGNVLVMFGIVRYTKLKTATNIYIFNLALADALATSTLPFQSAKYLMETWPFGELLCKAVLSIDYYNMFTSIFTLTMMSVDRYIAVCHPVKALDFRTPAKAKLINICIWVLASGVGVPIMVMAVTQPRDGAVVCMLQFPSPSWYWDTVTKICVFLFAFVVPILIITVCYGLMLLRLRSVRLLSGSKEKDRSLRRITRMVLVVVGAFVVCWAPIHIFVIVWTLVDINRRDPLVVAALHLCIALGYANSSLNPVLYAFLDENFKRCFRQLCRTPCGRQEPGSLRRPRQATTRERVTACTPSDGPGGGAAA
UniProt P33535, whole entry: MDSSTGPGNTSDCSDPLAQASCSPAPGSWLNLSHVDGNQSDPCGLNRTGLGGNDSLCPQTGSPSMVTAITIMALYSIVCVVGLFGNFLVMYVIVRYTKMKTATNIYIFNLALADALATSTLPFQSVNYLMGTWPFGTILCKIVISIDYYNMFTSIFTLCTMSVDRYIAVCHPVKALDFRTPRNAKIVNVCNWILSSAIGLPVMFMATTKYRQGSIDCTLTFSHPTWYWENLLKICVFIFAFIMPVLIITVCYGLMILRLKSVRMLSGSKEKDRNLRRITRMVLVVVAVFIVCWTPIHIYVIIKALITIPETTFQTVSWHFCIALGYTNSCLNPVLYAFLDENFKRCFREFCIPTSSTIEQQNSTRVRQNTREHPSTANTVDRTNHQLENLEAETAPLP
UniProt P33533, whole entry: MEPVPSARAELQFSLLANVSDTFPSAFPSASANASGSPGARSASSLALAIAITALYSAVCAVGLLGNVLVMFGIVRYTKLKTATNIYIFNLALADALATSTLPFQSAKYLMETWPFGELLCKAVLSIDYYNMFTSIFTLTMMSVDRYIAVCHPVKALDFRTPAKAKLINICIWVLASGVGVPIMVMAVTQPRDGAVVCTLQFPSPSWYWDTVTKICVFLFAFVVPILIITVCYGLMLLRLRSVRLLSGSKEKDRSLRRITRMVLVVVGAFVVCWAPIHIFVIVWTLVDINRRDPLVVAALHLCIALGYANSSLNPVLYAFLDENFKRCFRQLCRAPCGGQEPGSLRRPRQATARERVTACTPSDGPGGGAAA

What was measured:
[1] = target: δ-opioid receptor (Mus musculus, UniProt P32300); conditions: read-out: MVD IC50; δ agonism; ref Balboni et al.[5]; cited from earlier work
[2] = target: μ-opioid receptors (Rattus norvegicus, UniProt P33535); conditions: read-out: Receptor affinity Ki^μ; reference compounds; ref Balboni et al.[5]; cited from earlier work
[3] = target: δ-opioid receptors (Rattus norvegicus, UniProt P33533); conditions: read-out: Receptor affinity Ki^δ; reference compounds; ref Balboni et al.[5]; cited from earlier work

H-Dmt-Tic-NH-CH2-Bid [Compound 3]
IC50 [1]: 0.13 nM
Ki [2]: 0.5 nM
Ki [3]: 0.035 nM
